# Laboratory results as given in US20160177276A1 (Merck KGaA, published 2016).
# Tests used:
# CD47 (human) [1] = target: CD47 (human) (UniProt Q08722); assay: flow cytometry on CD47-high (CD47-transfected) CHO cells
# CD47 (human) [2] = target: CD47 (human) (UniProt Q08722); assay: flow cytometry on CD47-low human Ramos cells
# CD47 (human) [3] = target: CD47 (human) (UniProt Q08722); assay: flow cytometry on human erythrocytes, 50 µg/ml
# CD47 (human) [4] = target: CD47 (human) (UniProt Q08722); assay: flow cytometry on human erythrocytes, 50 µg/ml; the table prints 52%
# CD47 (human) [5] = target: CD47 (human) (UniProt Q08722); assay: flow cytometry on human erythrocytes, 50 µg/ml; negative control
Substance,EC50 (CD47 (human) [1]) [nM],EC50 (CD47 (human) [2]) [nM],% RBC MFI of anti-CD47 (CD47 (human) [3]) [%],RBC MFI (CD47 (human) [3]),% of anti-CD47 binding to erythrocytes (CD47 (human) [4]) [%],% RBC MFI of anti-CD47 (CD47 (human) [5]) [%],RBC MFI (CD47 (human) [5])
anti-EGFR-huIgG1-SIRPαV2(S66E) (other; other documents disagree on this pair),33,,,,,,
anti-EGFR-huIgG1-SIRPαV2(E47Y) (other; other documents disagree on this pair),10,,,,,,
anti-EGFR-huIgG1-SIRPαV2 AS2 (K53R/S66T/K68R) (other; other documents disagree on this pair),3,2,12,2.9,,,
anti-EGFR-huIgG1-SIRPαV2(1D4) (other; other documents disagree on this pair),3,2,52,12.1,53,,
anti-EGFR-huIgG1-SIRPαV2(K68H) (other; other documents disagree on this pair),56,,,,,,
anti-EGFR-huIgG1-SIRPαV2(E54P) (other; other documents disagree on this pair),8,81,1,0.3,,,
anti-EGFR-huIgG1-SIRPαV2(V6I) (other; other documents disagree on this pair),3,9,1,0.4,,,
anti-EGFR-huIgG1-SIRPαV2(Q37W) (other; other documents disagree on this pair),2,3,4,1,,,
anti-EGFR-huIgG1-SIRPαV2(S66H) (other; other documents disagree on this pair),25,,,,,,
anti-EGFR-huIgG1-SIRPαV2(M72N) (other; other documents disagree on this pair),40,,,,,,
anti-EGFR-huIgG1-SIRPαV2 AS1 (L4V/V27I/I31T/K53R/S66T/K68R/F94L) (other; other documents disagree on this pair),7,3,37,8.7,,,
anti-EGFR-huIgG1-SIRPαV2(V92N) (other; other documents disagree on this pair),72,,,,,,
anti-EGFR-huIgG1-SIRPαV2(H56P) (other; other documents disagree on this pair),2,13,4,0.9,,,
anti-EGFR-huIgG1-SIRPαV2(Q37H) (other; other documents disagree on this pair),6,71,2,0.3,,,
anti-EGFR-huIgG1-SIRPαV2(V27I) (other; other documents disagree on this pair),2,2,3,0.7,,,
anti-EGFR-huIgG1-SIRPαV2(Q37V) (other; other documents disagree on this pair),13,,,,,,
anti-EGFR huIgG1 (antibody; other documents disagree on this pair),,,,,,1,0.3
anti-EGFR-huIgG1-SIRPαV2(H56Y) (other; other documents disagree on this pair),12,,,,,,
anti-EGFR-huIgG1-SIRPαV2(I31R) (other; other documents disagree on this pair),2,14,12,2.9,,,
anti-EGFR-huIgG1-SIRPαV2(S66Q) (other; other documents disagree on this pair),5,2,21,4.9,,,
anti-EGFR-huIgG1-SIRPαV2(I31T) (other; other documents disagree on this pair),4,13,2,0.5,,,
anti-EGFR-huIgG1-(G4S)4-SIRPαV2 (other; other documents disagree on this pair),8,85,2,0.4,,,
anti-EGFR-huIgG1-SIRPαV2(P35G) (other; other documents disagree on this pair),18,,,,,,
anti-EGFR-huIgG1-SIRPαV2(M72R) (other; other documents disagree on this pair),8,84,1,0.3,,,
